Earlier results in patent US20090306944A1, “DEVICE AND METHOD FOR CALCULATING AND SUPPLYING A DRUG DOSE” (BAYER TECHNOLOGY SERVICES GMBH, priority 2006, published 2009).
Some compounds may have been tested in ways that are not shown here.

Tests used:
[1] = tested on: CYP3A; details: proportion of overall clearance, reference value in an adult

CCC(=O)N(c1ccccc1)C1(COC)CCN(CCn2nnn(CC)c2=O)CC1
Excretion process: CYP3A [1]: CYP3A (100%) | main binding protein in the plasma (adult): α1-Glycoprotein | Free fraction in the plasma (reference value in an adult): 10%
